According to IntAct's records for PubMed 12150926:

B1: Eukaryotic translation initiation factor 4E-binding protein 1 (Homo sapiens), Q13541 (parent)
chain: MSGGSSCSQTPSRAIPATRRVVLGDGVQLPPGDYSTTPGGTLFSTTPGGTRIIYDRKFLMECRNSPVTKTPPRDLPTIPGVTSPSSDEPPMEASQSHLRNSPEDKRAGGEESQFEMDI

Variants of: B1
Settings: with rptor_human RPTOR

| Variant | effect of a mutation on the interaction |
| --- | --- |
| MSGGSSCSQTPSRAIPATRRVVLGDGVQLPPGDYSTAPGGTLFSTAPGGTRIIYDRKFLMECRNAPVTKAPPRDLPTIPGVTAPSSDEPPMEASQSHLRNSPEDKRAGGEESQFEMDI [T37A;T46A;S65A;T70A;S83A] | increasing interaction |
| MSGGSSCSQTPSRAIPATRRVVLGDGVQLPPGDYSTEPGGTLFSTEPGGTRIIYDRKFLMECRNEPVTKEPPRDLPTIPGVTEPSSDEPPMEASQSHLRNSPEDKRAGGEESQFEMDI [T37E;T46E;S65E;T70E;S83E] | decreasing interaction |
